The chains behind the UniProt entries cited, without tags or fusion partners. Residues count along the entry.
UniProt A9YUC7, 2-528 K136R: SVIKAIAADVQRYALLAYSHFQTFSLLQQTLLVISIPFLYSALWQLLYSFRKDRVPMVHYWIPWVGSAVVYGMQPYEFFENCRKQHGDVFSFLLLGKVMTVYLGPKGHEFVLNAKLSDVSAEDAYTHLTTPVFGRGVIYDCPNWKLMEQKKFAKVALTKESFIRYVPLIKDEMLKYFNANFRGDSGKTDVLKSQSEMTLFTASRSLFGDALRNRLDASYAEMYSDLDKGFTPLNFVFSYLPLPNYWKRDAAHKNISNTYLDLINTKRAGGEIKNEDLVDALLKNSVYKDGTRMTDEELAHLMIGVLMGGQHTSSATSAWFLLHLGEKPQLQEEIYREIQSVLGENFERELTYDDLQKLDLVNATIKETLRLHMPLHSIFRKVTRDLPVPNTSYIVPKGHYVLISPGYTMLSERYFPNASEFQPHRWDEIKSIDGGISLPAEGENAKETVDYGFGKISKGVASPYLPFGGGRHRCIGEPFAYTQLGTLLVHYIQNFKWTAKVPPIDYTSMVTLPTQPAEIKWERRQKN

In publication PMC10668980, “Molecular Cloning, Heterologous Expression, Purification, and Evaluation of Protein–Ligand Interactions of CYP51 of Candida krusei Azole-Resistant Fungal Strain” (Biomedicines, 2023):

Key:
[1] = molecular target: T1, C. krusei CYP51 (C.krCYP51) (Pichia kudriavzevii, UniProt A9YUC7, K136R); settings: azoles
[2] = molecular target: T1, C. krusei CYP51 (C.krCYP51); experiment: biochemical

Clc1ccc(COC(Cn2ccnc2)c2ccc(Cl)cc2Cl)cc1 (stereo not drawn) [Econazole]
ΔAmax ([1]; absorbance change at ligand saturation): 0.058 | Type of Spectral Response ([1]; difference spectrum 350–500 nm): type II | Kd [2]: 1.3 nM
